Measurements: US9480684B2, “Orvinol and thevinol derivatives useful in the treatment of anxiety or a compulsive disorder” (dated 2016)

By UniProt entry, the sequences of proteins in these tests, tags left out. Where a name states a change or a piece, a line headed by the entry shows the natural chain unless it says otherwise.
UniProt P41145: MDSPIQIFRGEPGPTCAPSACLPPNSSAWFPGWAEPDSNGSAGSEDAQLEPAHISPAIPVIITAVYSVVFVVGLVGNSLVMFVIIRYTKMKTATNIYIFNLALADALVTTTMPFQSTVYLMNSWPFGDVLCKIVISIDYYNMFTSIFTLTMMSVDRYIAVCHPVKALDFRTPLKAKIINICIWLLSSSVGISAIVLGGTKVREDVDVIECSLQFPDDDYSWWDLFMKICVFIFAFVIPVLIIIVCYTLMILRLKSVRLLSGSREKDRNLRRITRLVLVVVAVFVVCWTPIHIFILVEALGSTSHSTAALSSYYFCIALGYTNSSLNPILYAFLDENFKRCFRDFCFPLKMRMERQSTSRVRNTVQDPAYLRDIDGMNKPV

Target: human KOR (CHO cell membranes) (Homo sapiens (Human), UniProt P41145)
Assay: [35S]GTPγS binding assay, kappa receptor
Details: for Kappa % stim: single concentration (10 μM) versus the standard U69,593

CO[C@]12CC[C@@]3(C[C@]1(C)[C@H](O)c1cccc(C)c1)[C@H]1Cc4ccc(O)c5c4[C@@]3(CCN1CC1CC1)[C@H]2O5
Kappa % stim: −1%

CO[C@]12C=C[C@@]3(C[C@]1(C)[C@H](O)c1ccccc1)[C@H]1Cc4ccc(O)c5c4[C@@]3(CCN1CC1CC1)[C@H]2O5
Kappa antagonist potency Ke (against standard agonist U69,593): 0.41 nM
Kappa % stim: 3%

CO[C@]12CC[C@@]3(C[C@]1(C)[C@H](O)c1ccc(F)cc1)[C@H]1Cc4ccc(O)c5c4[C@@]3(CCN1CC1CC1)[C@H]2O5
Kappa % stim: −5%
